The text below walks through data of ChEMBL document CHEMBL6127109, “mARC1 Is the Main Contributor to Metabolic Reduction of N-Hydroxyurea” (J Med Chem, 2024).

As usually defined, the Km is the concentration of substrate that gives half-maximal velocity.

Substrate in the data set: NC(=O)NO
To be noted: Homo sapiens.

B1: Mitochondrial amidoxime-reducing component 1 (Homo sapiens), Q5VT66 (protein)
chain: MGAAGSSALARFVLLAQSRPGWLGVAALGLTAVALGAVAWRRAWPTRRRRLLQQVGTVAQLWIYPVKSCKGVPVSEAECTAMGLRSGNLRDRFWLVINQEGNMVTARQEPRLVLISLTCDGDTLTLSAAYTKDLLLPIKTPTTNAVHKCRVHGLEIEGRDCGEATAQWITSFLKSQPYRLVHFEPHMRPRRPHQIADLFRPKDQIAYSDTSPFLILSEASLADLNSRLEKKVKATNFRPNIVISGCDVYAEDSWDELLIGDVELKRVMACSRCILTTVDPDTGVMSRKEPLETLKSYRQCDPSERKLYGKSPLFGQYFVLENPGTIKVGDPVYLLGQ
B1: the Km was determined as 6.7 mM.
